Assay results reported in ChEMBL document CHEMBL5634145, “Discovery of novel amidobenzimidazole derivatives as orally available small molecule modulators of stimulator of interferon genes for cancer immunotherapy” (Eur J Med Chem, 2023).

Tests used:
[1] = target: T1, Stimulator of interferon genes protein (Mus musculus) (UniProt Q3TBT3); experiment: Agonist activity at STING in mouse RAW264.7 cells assessed as increase in IP-10 level incubated for 24 hrs by ELISA; type: cell-based; conditions: filed as agonist, dose 12.5-80 µM
T1 sequence (whole entry): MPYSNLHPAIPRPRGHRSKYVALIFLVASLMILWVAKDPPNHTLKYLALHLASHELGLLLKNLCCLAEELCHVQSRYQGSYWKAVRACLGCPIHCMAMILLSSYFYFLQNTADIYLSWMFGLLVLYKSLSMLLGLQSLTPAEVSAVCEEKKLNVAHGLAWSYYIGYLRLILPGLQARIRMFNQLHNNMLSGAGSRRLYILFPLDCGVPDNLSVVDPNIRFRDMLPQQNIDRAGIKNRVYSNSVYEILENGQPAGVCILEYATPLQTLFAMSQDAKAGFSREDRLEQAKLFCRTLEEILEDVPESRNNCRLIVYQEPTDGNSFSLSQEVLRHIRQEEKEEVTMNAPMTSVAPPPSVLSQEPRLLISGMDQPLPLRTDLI

[2] = target: T1, Stimulator of interferon genes protein (Mus musculus); experiment: Agonist activity at STING in mouse RAW264.7 cells assessed as increase in IFN-beta level incubated for 24 hrs by ELISA; type: cell-based; conditions: filed as agonist, dose 12.5-80 µM
[3] = target: T1, Stimulator of interferon genes protein (Mus musculus); experiment: Competitive binding affinity to 6xHis-tagged wild type mouse STING in presence of d2-labeled STING ligand by HTRF method; conditions: filed as agonist, dose 0.01-100 µM

Measured: Activity

Cc1ncccc1C(=O)Nc1nc2cc(C(N)=O)ccc2n1CCCCNC(=O)OC(C)(C)C
active: [1] Dose-Dependent Effect | [2] Dose-Dependent Effect | [3] Dose-Dependent Effect
